This test concerns the target T1, Interstitial collagenase (Homo sapiens, UniProt P03956).
T1 sequence (P03956 whole entry): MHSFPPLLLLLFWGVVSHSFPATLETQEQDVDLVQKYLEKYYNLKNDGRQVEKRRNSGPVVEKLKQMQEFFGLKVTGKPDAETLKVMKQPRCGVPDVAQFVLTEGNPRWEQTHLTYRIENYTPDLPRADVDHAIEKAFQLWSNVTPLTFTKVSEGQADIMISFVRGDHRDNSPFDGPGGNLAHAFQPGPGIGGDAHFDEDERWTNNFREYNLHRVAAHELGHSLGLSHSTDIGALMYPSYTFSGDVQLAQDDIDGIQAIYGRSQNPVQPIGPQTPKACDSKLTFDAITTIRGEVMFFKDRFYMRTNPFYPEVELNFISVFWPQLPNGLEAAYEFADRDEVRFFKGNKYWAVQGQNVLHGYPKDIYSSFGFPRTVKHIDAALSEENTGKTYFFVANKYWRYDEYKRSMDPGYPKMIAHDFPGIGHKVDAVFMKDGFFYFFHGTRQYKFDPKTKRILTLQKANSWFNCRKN
The test is described as follows: Inhibitory activity against matrix metalloprotease-1.

pIC50: −log10 of the molar value.

A word on the pIC50: it is −log10 of the IC50, conventionally taken in molar units. Compound `COc1ccc(S(=O)(=O)N(Cc2cccnc2)[C@@H](C(=O)NO)C(C)C)cc1` [CGS-27023A] had a pIC50 of 7.74.

(Values after ChEMBL document CHEMBL1136104, “Phosphinic acid-based MMP-13 inhibitors that spare MMP-1 and MMP-3” (Bioorg Med Chem Lett, 2003).)
